Consider one molecule from patent US6521594 (dated 2003).

Sequences of proteins named here, by UniProt entry; tags and fusion partners are left off. Residues count along the entry.
Platelet glycoprotein IIb/IIIa, UniProt P05106, 27-788, chain 2 of 2: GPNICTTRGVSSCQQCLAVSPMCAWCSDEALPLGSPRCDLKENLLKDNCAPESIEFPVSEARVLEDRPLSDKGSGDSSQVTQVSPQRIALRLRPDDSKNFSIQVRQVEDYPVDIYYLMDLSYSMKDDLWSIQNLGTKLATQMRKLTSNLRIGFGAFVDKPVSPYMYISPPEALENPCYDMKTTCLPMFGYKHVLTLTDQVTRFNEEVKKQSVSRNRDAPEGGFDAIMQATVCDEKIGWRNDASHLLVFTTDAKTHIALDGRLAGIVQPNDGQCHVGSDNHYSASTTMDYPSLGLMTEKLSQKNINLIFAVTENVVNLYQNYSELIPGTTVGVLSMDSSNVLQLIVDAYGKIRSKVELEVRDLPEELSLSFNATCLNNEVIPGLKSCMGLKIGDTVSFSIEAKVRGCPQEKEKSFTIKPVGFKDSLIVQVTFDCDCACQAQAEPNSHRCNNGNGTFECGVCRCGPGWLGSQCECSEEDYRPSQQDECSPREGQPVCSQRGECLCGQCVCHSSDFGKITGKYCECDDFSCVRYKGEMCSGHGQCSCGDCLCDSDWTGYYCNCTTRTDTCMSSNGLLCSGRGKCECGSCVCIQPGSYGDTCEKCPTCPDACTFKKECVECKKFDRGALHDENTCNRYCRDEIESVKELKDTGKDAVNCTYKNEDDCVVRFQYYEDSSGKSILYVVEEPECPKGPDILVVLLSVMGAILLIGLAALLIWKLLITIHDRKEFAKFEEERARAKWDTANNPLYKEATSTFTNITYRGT

The target of the experiment is Platelet glycoprotein IIb/IIIa (human, UniProt P08514 32-1039; P05106 27-788). In words: ELISA. A general note: An ELISA detects its analyte on a solid surface through an enzyme-linked reagent.

In the case of CNPRGDXXC (N-terminal acetyl; O-Me-Tyr at 7; Cit at 8; C-terminal amide) [Ac-CNPRGD(Y-OMe)(Cit)C-NH2], the IC50 stood at 352 nM.

In general, IC50 refers to the concentration that inhibits the measured activity by half.
